ChEMBL document CHEMBL1134817, “Mixed kappa agonists and mu agonists/antagonists as potential pharmacotherapeutics for cocaine abuse: synthesis and opioid receptor binding affinity of N-substituted derivatives of morphinan” (Bioorg Med Chem Lett, 2001)

Protein sequences, listed by entry. Tags and fused reporters are not part of them. Lines headed by an entry give the natural chain unless they say otherwise; changes in a name come on top.
UniProt P41145: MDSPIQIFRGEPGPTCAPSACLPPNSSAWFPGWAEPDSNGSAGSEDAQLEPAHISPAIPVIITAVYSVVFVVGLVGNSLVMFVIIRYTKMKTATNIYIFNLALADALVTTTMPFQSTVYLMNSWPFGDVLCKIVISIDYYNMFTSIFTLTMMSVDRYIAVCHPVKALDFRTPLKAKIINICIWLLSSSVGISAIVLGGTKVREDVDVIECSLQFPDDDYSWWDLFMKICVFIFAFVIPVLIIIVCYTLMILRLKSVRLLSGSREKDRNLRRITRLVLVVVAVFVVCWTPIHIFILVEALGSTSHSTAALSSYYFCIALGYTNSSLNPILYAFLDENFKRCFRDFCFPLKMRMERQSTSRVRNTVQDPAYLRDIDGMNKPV
UniProt P41143, whole entry, looked up: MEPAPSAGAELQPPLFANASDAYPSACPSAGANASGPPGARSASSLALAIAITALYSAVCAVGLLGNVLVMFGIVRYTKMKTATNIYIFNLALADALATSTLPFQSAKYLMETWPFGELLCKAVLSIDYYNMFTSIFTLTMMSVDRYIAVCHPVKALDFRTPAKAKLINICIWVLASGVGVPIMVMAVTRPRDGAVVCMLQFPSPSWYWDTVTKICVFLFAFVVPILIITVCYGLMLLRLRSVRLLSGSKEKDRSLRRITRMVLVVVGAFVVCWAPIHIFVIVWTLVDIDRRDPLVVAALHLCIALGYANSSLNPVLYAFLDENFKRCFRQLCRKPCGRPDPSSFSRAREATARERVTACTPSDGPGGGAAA

Molecular target: Opioid receptors; delta & kappa (Homo sapiens) (UniProt P41145+P41143)
Test: Selectivity ratio of kappa opioid receptor to that of delta opioid receptor in guinea pig brain membranes
Format: cell membranes
Conditions: Cavia porcellus; target entry is the homologue from another species

CN(C(=O)Cc1ccc(Cl)c(Cl)c1)C1CCCCC1N1CCCC1 (stereo unspecified)
Selectivity: 6900
